Data: patent US20220218837A1, “DRUG CONJUGATE” (priority 2018, published 2022)

Assays:
[1] = test system: HSP27 mRNA in A2058 cells (EGFR-); assay: HSP27 gene silencing in A2058 cells; type: cell-based, human
Description: Cells were seeded in DMEM (PAN-Biotech GmbH) supplemented with 10% fetal bovine serum (PAN-Biotech GmbH) and 1% penicillin/streptomycin (PAN-Biotech GmbH), in a 96 well plate at 5,000 c/w in 100 μL/well and incubated overnight at 37° C. and 5% CO2. The next day samples were prepared in DMEM and cells were treated.
RNA isolation and Qper analysis was performed according to standard procedures and protocols.

[2] = test system: HSP27 mRNA; assay: A431 xenograph 'nude' mouse tumor model, HSP27 gene expression in tumors; type: in vivo; conditions: for reduction in HSP27 mRNA/gene expression in the tumors: compared to single dosing of cetuximab-SO1861 or cetuximab-HSP27BNA mono therapies
Description: This scaffold comprising conjugate was tested in a A431 xenograph ‘nude’ mouse tumor model for EGFR-mediated tumor targeted gene silencing activity. Dosings started at day 12 when tumors reached ˜170 mm^3 in size and tumor samples were collected at 72h after the first dosing and analysed for HSP27 gene expression compared to cellular control mRNA expression (reference genes).
Dosing started at day 12 when tumors reached ˜150 mm^3 in size and HSP27 mRNA expression was determined. For this, tumor samples were collected at 72h after the first dosing and analysed for HSP27 gene expression levels compared to cellular control mRNA expression levels (reference genes). […] Dosings started at day 12 when tumors reached ˜150 mm^3 in size and HSP27 mRNA expression was determined. For this, tumor samples were collected at 72h after the first dosing and analysed for HSP27 gene expression levels compared to cellular control mRNA expression levels (reference genes).
Dosings started at day 12 when tumors reached ˜150 mm^3 in size and tumor samples were collected at 72h after the first dosing and analysed for HSP27 gene expression compared to control gene mRNA expression levels (reference genes). […] Compared to the vehicle control tumors, a reduction of 40% HSP27 gene silencing was observed.
Dosing started at day 12 when tumors reached ˜150 mm^3 in size and HSP27 mRNA expression was determined. For this, tumor samples were collected at 72h after the first dosing and analysed for HSP27 gene expression levels compared to cellular control mRNA expression levels (reference genes).

[3] = test system: MDA-MB-468 cells (EGFR++/HER2-/CD71+); assay: Cell killing / cell viability, MDA-MB-468 cells; type: cell-based, human; conditions: for cell killing activity (words): substance alone, no partner
[4] = test system: HeLa cells (EGFR+/-); assay: Cell killing / cell viability, HeLa cells; conditions: read-out: IC50 cell killing, titrated + fixed 10 pM CD71mab-saporin
[5] = test system: human A431 tumor cells (xenograft; high EGFR, medium CD71, low HER2); assay: A431 xenograft mouse tumor model, tumor volume; type: in vivo, mice; conditions: same groups as tumor size
Description: Female Balb/c nude mice were injected subcutaneously with a suspension of human A431 tumor cells. Under the skin of the mice, a human epidermal carcinoma developed in the xenograft animal tumor model. After injection of the tumor cells, the xenograft tumor was allowed to develop to a size of approximately 170-180 mm^3. The A431 tumor cells have the following characteristics: high EGFR expressors, medium CD71 expressors, low HER2 expressors.
In Table A, the results of the treatment of control mice and tumor-bearing mice are presented. Tumor-bearing mice were treated with the indicated antibodies directed to either human Her2/neu, human EGFR, or human CD71, which are cell-surface receptors on the xenograft tumor. Cetuximab was covalently conjugated with saponin SO1861. […] The ADCs trastuzumab-saporin (covalent conjugate) and anti-CD71 mAb (OKT-9, IgG)—saporin (covalent conjugate) were tested for their tumor-attacking efficacy in the mice, measured as tumor volume in time after start of the treatment with the ADCs. The dose of the ADCs was sub-optimal in the tumor model. […]
The conjugate was tested in a A431 (EGFR^++) xenograph mouse tumor model for EGFR tumor targeted cell killing as illustrated in FIG. 9-4. Dosings started at day 12 when tumors reached ˜150 mm^3 in size and tumor volume was determined after every dosing.

[6] = test system: JIMT-1 cells (HER2+/-); assay: Cell killing / cell viability, JIMT-1 cells; type: cell-based, human; conditions: titrated + fixed 10 pM CD71mab-saporin
[7] = 1 dosing of 30 mg/kg, 72h, compared to vehicle control
[8] = A2058 (EGFR-), substance alone, no partner

## cetuximab-(Cys-L-SO1861)^3,8: SO1861-EMCH conjugated via cysteine residues to cetuximab
[1]; A2058, titrated + fixed 100 nM cetuximab-(Lys-L-HSP27BNA)^4
  IC50 HSP27 gene silencing: no gene silencing activity was observed

## cetuximab-(Cys-L-SO1861)^3,9(Lys-L-HSP27BNA)^1,8: cetuximab with SO1861-EMCH on Cys (DAR 3,9) and HSP27BNA via labile linker on Lys (DAR 1,8)
[2]; 1 dosing of 30 mg/kg, 72h
  reduction in HSP27 mRNA/gene expression in the tumors: 40%
[2]; [7]
  reduction in HSP27 gene expression in the tumors: 25%

## cetuximab-Cys-(SO1861-L-trifunctional linker-L-HSP27BNA)^3′^7
[2]; 1 dosing of 25 mg/kg, 72h, compared to the vehicle control tumors
  reduction in HSP27 gene expression in the tumors: 25%
[2]; 1 dosing of 25 mg/kg, tumors sampled 72h after first dosing, compared to single dosing of cetuximab-(Cys-L-SO1861)^3,8 or cetuximab-(Lys-L-HSP27BNA)^4 mono therapies
  reduction in HSP27 gene expression in the tumors: 40%
[2]; 1 dosing of 30 mg/kg, 72h
  reduction in HSP27 mRNA/gene expression in the tumors: 40%

## cetuximab-Cys-(SO1861-L-trifunctional linker-L-HSP27BNA)^3′^7: trifunctional linker carrying SO1861 and HSP27BNA (labile), conjugated via maleimide to cysteines of cetuximab
[2]; [7]
  reduction in HSP27 gene expression in the tumors: 25%
[1]; [8]
  IC50: 100 nM

## cetuximab-Cys-(dendron(-L-SO1861)^4)^3,9: Dendron(-L-SO1861)^4 conjugated to cetuximab via cysteine residues
[3]
  cell killing activity (words): not induced
[3]; listed as Cetuximab-Cys-(dendron(-L-SO1861)^4)^3,9
  cell killing activity (words): could not be induced
[3]; titrated + fixed 10 pM CD71mab-saporin
  IC50 cell killing: strong enhancement of the cell killing activity
[4]
  IC50: > 100 nM

## Cetuximab-SO1861 (covalent conjugate): SO1861-EMCH covalently coupled to reduced cysteines of cetuximab
[5]
  outcome of the animals (death/euthanasia or survival): death/euthanasia

## cetuximab-(Lys-L-HSP27BNA)^4: HSP27BNA conjugated via lysine residues to cetuximab
[1]; A2058, titrated + fixed 77 nM Cetuximab-(Cys-L-SO1861)^3,8 (1T2C combination)
  IC50: > 100 nM

## Cetuximab-(Cys-L-SO1861)^3,8(Lys-L-HSP27BNA)^3,8: SO1861 (labile) and HSP27BNA oligo (labile) conjugated to cetuximab
[1]; [8]
  IC50: > 100 nM

## trastuzumab-Lys-(dendron(-L-SO1861)^4)^4,7: dendron(-L-SO1861)^4 conjugated to lysines of trastuzumab
[6]
  IC50 cell killing: no cell killing activity could be observed

## Cetuximab-Lys-(dendron(-L-SO1861)^4)^4,4: dendron(-L-SO1861)^4 conjugated to lysines of cetuximab
[3]
  cell killing activity (words): not induced
